Literature values as cited in patent US20250289804A1, “SUBSTITUTED INDOLE COMPOUNDS AND METHODS OF USE THEREOF” (NOVARTIS PHARMA AG, priority 2021, published 2025).

Test system: C3G patients
Details: cited from earlier work

B1: Eculizumab (antibody, chains of the INN, looked up)
heavy: QVQLVQSGAEVKKPGASVKVSCKASGYIFSNYWIQWVRQAPGQGLEWMGEILPGSGSTEYTENFKDRVTMTRDTSTSTVYMELSSLRSEDTAVYYCARYFFGSSPNWYFDVWGQGTLVTVSSASTKGPSVFPLAPCSRSTSESTAALGCLVKDYFPEPVTVSWNSGALTSGVHTFPAVLQSSGLYSLSSVVTVPSSNFGTQTYTCNVDHKPSNTKVDKTVERKCCVECPPCPAPPVAGPSVFLFPPKPKDTLMISRTPEVTCVVVDVSQEDPEVQFNWYVDGVEVHNAKTKPREEQFNSTYRVVSVLTVLHQDWLNGKEYKCKVSNKGLPSSIEKTISKAKGQPREPQVYTLPPSQEEMTKNQVSLTCLVKGFYPSDIAVEWESNGQPENNYKTTPPVLDSDGSFFLYSRLTVDKSRWQEGNVFSCSVMHEALHNHYTQKSLSLSLG
light: DIQMTQSPSSLSASVGDRVTITCGASENIYGALNWYQQKPGKAPKLLIYGATNLADGVPSRFSGSGSGTDFTLTISSLQPEDFATYYCQNVLNTPLTFGQGTKVEIKRTVAAPSVFIFPPSDEQLKSGTASVVCLLNNFYPREAKVQWKVDNALQSGNSQESVTEQDSKDSTYSLSSTLTLSKADYEKHKVYACEVTHQGLSSPVTKSFNRGEC
notes: "a C5 monoclonal antibody that has been approved for treatment of aHUS"
In the case of B1, the improvement of disease is listed as “only a subset of patients who had higher level of C5b-9 (MAC) showed improvement of disease”.
